## Measured affinities in a library of Ab-14 heavy chain variants

The measurements come from Engelhart et al. 2022 (doi:10.1038/s41597-022-01779-4) through the FLAb antibody collection.

Target: peptide PDVDLGDISGINAS, taken from heptad repeat 2 (HR2) of SARS-CoV-2 spike.

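Phage display of a naive human antibody library on the peptide gave the parent. In library AAYL49, one, two or three CDR residues were substituted; doubles and triples were drawn at random. AlphaSeq pools MATa yeast showing the antibodies with MATalpha yeast showing the peptide. After mating in shaken culture at 30 °C for 16 h, diploids were selected and their barcode pairs sequenced. The ratio of observed to expected reads was calibrated, replicate by replicate, on BCL2-family standards whose Kd was known from biolayer interferometry. Mating was done three times.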

The variants keep the light chain, the linker and the frameworks of Ab-14 (scFv order VH, a 15-residue (Gly4Ser)3 linker, VL).
VH: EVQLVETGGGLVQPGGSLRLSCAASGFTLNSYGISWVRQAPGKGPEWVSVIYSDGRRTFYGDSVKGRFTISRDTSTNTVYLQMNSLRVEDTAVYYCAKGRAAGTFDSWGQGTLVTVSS
VL: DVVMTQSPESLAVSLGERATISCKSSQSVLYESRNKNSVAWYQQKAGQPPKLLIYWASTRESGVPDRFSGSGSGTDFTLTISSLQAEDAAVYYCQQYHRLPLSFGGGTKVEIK

Positions count from residue 1 of the parent VH; G55V puts V in place of G. Values are log10 of the apparent Kd in nM; lower means stronger binding. "ND" means that the variant was in the library but no mating with the target was seen in that replicate; the authors take this as a sign of poor binding, and no number exists. Three control strains display no target. For library AAYL49, 15% of the pairings with them gave a signal, with a median of 4.06 and one signal in twenty below 2.83, so weak values seen in few replicates may be background. The control count says in how many pairings with the empty strains this scFv gave a signal, with their mean in brackets.

changes	log10 Kd (nM) by replicate	signal with controls
G55V Y60L A101Q	ND / ND / ND	0/9
G33P G61Y A101D	ND / 3.50 / ND	0/9
N30I Y60F	ND / ND / ND	1/9 (3.51)
G26V K65F S107Y	ND / ND / 4.37	0/9
I51P S63Q R100Y	4.99 / ND / 4.52	4/9 (3.66)
G26E T58V S63L	3.75 / 3.43 / 6.13	2/9 (4.28)
G55D V64S G103M	ND / ND / ND	1/9 (4.85)
Y32D F59W	ND / ND / ND	2/9 (2.73)
G26S R57D T58H	ND / ND / ND	1/9 (3.07)
S53P V64P R100I	ND / 3.99 / ND	2/9 (3.72)
R56M V64A A102W	ND / ND / ND	0/9
S31W D54E S63A	ND / ND / ND	0/9
S31A K65W A102N	ND / ND / ND	1/9 (4.87)
G26A V64E R100W	4.84 / 2.96 / ND	1/9 (5.27)
G26V S35F S107G	6.81 / 4.02 / 6.02	4/9 (4.33)
F27L G33P F59I	ND / ND / ND	1/9 (3.35)
S31H R56N R100Q	0.73 / 0.88 / 0.77	2/9 (4.23)
R56G D62Y S63H	ND / ND / ND	0/9
S31A F105P D106M	2.72 / 2.55 / 2.44	4/9 (4.23)
V50R T58Y D106S	ND / ND / ND	0/9
F27R A101F D106E	2.80 / ND / ND	0/9
V50A Y60P S63M	ND / ND / ND	1/9 (3.49)
Y32M V64P D106M	3.52 / ND / ND	2/9 (4.85)
S35R I51P F105I	ND / ND / ND	0/9
K65R G99A A102Y	ND / ND / ND	0/9
I34M S63A K65V	ND / 3.51 / ND	1/9 (3.12)
T28Q N30K I34Y	ND / ND / ND	0/9
S31V I51V	ND / 4.66 / ND	2/9 (2.71)
R56Y T104A	ND / ND / ND	0/9
I34P T58V G103S	ND / ND / ND	0/9
T28D D62Q S107V	-0.02 / 0.34 / 0.09	4/9 (4.84)
G26E S35K F59R	4.91 / 4.13 / 4.26	6/9 (4.22)
G99A A102K S107V	1.69 / 1.53 / 1.74	6/9 (4.21)
Y32L A102N S107A	0.90 / 2.03 / 1.52	1/9 (2.79)
S35M F59I D106A	ND / ND / 3.83	1/9 (4.19)
S35D R56L T58H	ND / ND / ND	2/9 (2.82)
G26L V50H F59C	ND / ND / ND	2/9 (3.80)
Y32Q G61L A101S	0.53 / 0.61 / 0.33	0/9
Y52L S53L R100C	ND / ND / ND	1/9 (3.21)
L29W D62A	ND / ND / ND	1/9 (3.06)

The first 6 entries again:

changes	log10 Kd (nM) by replicate	signal with controls
G55V Y60L A101Q	ND / ND / ND	0/9
G33P G61Y A101D	ND / 3.50 / ND	0/9
N30I Y60F	ND / ND / ND	1/9 (3.51)
G26V K65F S107Y	ND / ND / 4.37	0/9
I51P S63Q R100Y	4.99 / ND / 4.52	4/9 (3.66)
G26E T58V S63L	3.75 / 3.43 / 6.13	2/9 (4.28)